Test results: PubChem BioAssay AID1382 (National Center for Advancing Translational Sciences (NCATS), 2008)
Where “and” joins values, the source holds several entries; their conditions need not be identical. Equal values may be shown once. The list shows a part of the results, in another mix than the full data. Records with an inconclusive call do not appear. Calls of active or inactive are those of the source.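 How the source made its calls: active means inhibitors giving a complete concentration-response curve with high efficacy; inconclusive means inhibitors giving only a partial curve with partial efficacy; inactive means the rest.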

By UniProt entry, the sequences of proteins in these tests, tags left out. Where a name states a change or a piece, a line headed by the entry shows the natural chain unless it says otherwise.
UniProt P04062: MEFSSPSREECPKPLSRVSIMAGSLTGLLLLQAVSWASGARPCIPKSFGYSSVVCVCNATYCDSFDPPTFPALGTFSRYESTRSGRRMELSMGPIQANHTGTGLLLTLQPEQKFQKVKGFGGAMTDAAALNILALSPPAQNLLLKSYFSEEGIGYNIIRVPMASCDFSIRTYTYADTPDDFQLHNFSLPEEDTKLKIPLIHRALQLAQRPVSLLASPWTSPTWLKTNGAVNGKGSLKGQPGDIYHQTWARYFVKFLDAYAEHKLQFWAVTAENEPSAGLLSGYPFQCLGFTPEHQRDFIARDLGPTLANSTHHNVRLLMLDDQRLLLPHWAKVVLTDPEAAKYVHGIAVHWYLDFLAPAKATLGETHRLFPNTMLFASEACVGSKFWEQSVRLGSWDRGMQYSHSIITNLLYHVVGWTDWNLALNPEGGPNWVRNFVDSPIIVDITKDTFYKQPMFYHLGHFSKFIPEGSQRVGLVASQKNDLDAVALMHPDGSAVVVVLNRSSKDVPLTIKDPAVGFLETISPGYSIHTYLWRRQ

These molecules were tested against Lysosomal acid glucosylceramidase (Homo sapiens) (UniProt P04062) (assay: Confirmation Concentration-Response Assay for Glucocerebrosidase Inhibitors). Details: purified GBA, resorufin glucoside fluorescence, 20 min.
Excerpt: NCGC Assay Overview: NIH Molecular Libraries Screening Centers Network [MLSCN] NIH Chemical Genomics Center [NCGC] MLSCN Grant: XO1-MH078932-01 Beta-glucocerebrosidase catalyzes the hydrolysis of beta-glucocerebroside to glucose and ceramide. The inherited deficiency of beta-glucocerebrosidase results in Gaucher disease, which is characterized by a wide variety of symptoms including hepatosplenomegaly, anemia, thrombocytopenia, bony lesions and bone marrow infiltration with characteristic storage cells, known as Gaucher cells. There are also forms of the disorder affecting the central nervous system. Patients with the same genotypes can manifest with diverse clinical presentations and it is believed that improper folding and trafficking of beta-glucocerbrosidase may contribute to the phenotypes observed. Low molecular weight molecules, acting as chaperones, may potentially restore trafficking of misfolded beta-glucocerebrosidase from the endoplasmic reticulum to the lysosomes, thereby enhancing functional lysosomal beta-glucocerebrosidase activity. Using normal beta-glucocerebrosidase, an assay was developed to screen for small molecule inhibitors that could potentially act as molecular chaperones on the mutant forms [developed with NIH investigator Dr. Ellen Sidransky's laboratory]. A pro-fluorescent substrate was chosen for a screen against a small molecule library. The beta-glucocerebrosidase assay used Resorufin beta-D-Glucopyranoside (Marker Gene Technology Inc.), generating a red fluorescent product. The Km for the Resorufin beta-D-Glucopyranoside was determined to be 71.2 uM. […]
NCGC Assay Protocol Summary: Both enzyme and substrate were diluted in buffer composed of 50mM citric acid/KH2PO4, 10mM sodium taurocholate and 0.01% tween-20 at pH 5.9. […] This particular assay protocol was performed in 1536-well plate format as follows: Red fluorescence substrate assay: 2 uL enzyme 23 nL compound 1 uL substrate (final concentration of 30 uM) Incubate at room temperature (RT) for 20 minutes Read the plate in Viewlux plate reader (Ex=548(7) and Em=600(10)).

Potency, active:
CCc1nnc(NC(=O)c2ccc(NS(=O)(=O)c3ccccc3)cc2)s1 74.5 nM and 153 nM, Cc1cc(N2CCOCC2)nc2ccc(NC(=O)C3CCCCC3)cc12 41.6 nM and 38.8 nM, COc1ccc(Cl)cc1Nc1nc(NCCO)nc(N2CCCC2)n1 682 nM and 554 nM
